Results taken from PMC8224742, “Evaluation of 1β-Hydroxylation of Deoxycholic Acid as a Non-Invasive Urinary Biomarker of CYP3A Activity in the Assessment of Inhibition-Based Drug–Drug Interaction in Healthy Volunteers” (Journal of Personalized Medicine, 2021).

System: CYP3A
Conditions: in vivo

half-life of urinary 1β-OH-DCA/ToDCA (human, 100 mg): four | t1/2 of urinary 1β-OH-DCA/ToDCA UMR, elimination curve (human, 100 mg): 96 h | t1/2 of urinary 1β-OH-DCA/ToDCA UMR, recovery curve: 101 h
Substance: 1β-hydroxy-deoxycholic acid/total deoxycholic acid ratio [1β-OH-DCA/ToDCA]
